The values that follow are results of earlier work, collected in patent US7879861B2, “Combi-molecules having EGFR and DNA targeting properties” (priority 2005, dated 2011).

This series concerns metastatic breast cancer. Conditions: single agent; cited from earlier work.

As to “Herceptin: a humanized antibody against erbB2”, the response rate is given as 22%.
